Data on 1 compound can be found in patent US9975876B2, “2-pyridyloxy-3-ester-4-ether orexin receptor antagonists” (MERCK SHARP & DOHME CORP., priority 2013, dated 2018).

Chains of the proteins cited; added tags and fusions are not shown.
UniProt O43614, whole entry: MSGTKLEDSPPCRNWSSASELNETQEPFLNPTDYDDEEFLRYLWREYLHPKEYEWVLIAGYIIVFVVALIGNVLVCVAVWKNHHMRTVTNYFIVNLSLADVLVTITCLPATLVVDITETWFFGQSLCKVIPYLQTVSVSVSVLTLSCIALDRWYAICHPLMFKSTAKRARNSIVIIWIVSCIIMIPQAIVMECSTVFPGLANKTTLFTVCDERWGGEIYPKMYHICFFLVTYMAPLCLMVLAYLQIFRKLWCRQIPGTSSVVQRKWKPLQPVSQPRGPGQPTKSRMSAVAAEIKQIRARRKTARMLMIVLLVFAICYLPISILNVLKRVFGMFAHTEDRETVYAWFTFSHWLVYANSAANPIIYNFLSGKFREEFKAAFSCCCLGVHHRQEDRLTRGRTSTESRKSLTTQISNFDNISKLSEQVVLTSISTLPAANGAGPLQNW

One experiment deals with hOX1R (Homo sapiens, UniProt O43613). Kind of experiment: FLIPR Ca2+ flux assay, orexin-1 receptor antagonism. The conditions noted are these: CHO cells; agonist 70 pM Ala-6,12 human orexin-A. The class given is cell-based.
For another experiment, the target named is human orexin-2 receptor (Homo sapiens (Human), UniProt O43614). Kind of experiment: FLIPR Ca2+ flux assay, orexin-2 receptor antagonism. The experiment is classed as cell-based. The conditions noted are these: CHO cells; agonist 70 pM Ala-6,12 human orexin-A; read-out: hOX2R FLIPR IC50. As for the experimental part: In a typical experiment the OX1 and OX2 receptor antagonistic activity of the compounds of the present invention was determined in accordance with the following experimental method. For intracellular calcium measurements, Chinese hamster ovary (CHO) cells expressing the rat orexin-1 receptor or the human orexin-2 receptor, are grown in Iscove's modified DMEM containing 2 mM L-glutamine, […], 1% hypoxanthine-thymidine supplement, 100 U/ml penicillin, 100 μg/ml streptomycin and 10% heat-inactivated fetal calf serum (FCS). The cells are seeded at 20,000 cells/well into Becton-Dickinson black 384-well clear bottom sterile plates coated with poly-D-lysine. All reagents were from GIBCO-Invitrogen Corp. The seeded plates are incubated overnight at 37° C. and 5% CO2. […] Within the Fluorescent Imaging Plate Reader (FLIPR, Molecular Devices), test compounds are added to the plate in a volume of 25 μl, incubated for 5 min and finally 25 μl of agonist is added. Fluorescence is measured for each well at 1 second intervals for 5 minutes and the height of each fluorescence peak is compared to the height of the fluorescence peak induced by 70 pM Ala-6,12 orexin-A with buffer in place of antagonist. […] The intrinsic orexin receptor antagonist activity of a compound which may be used in the present invention may be determined by these assays.
A general note: Calcium assays in cells follow changes in intracellular calcium, usually with a dye or a luminescent sensor.

Usually IC50 stands for the concentration needed to halve the response being measured. Regarding `CCOC(=O)c1c(OC)ccnc1O[C@@H]1CC[C@@H](C)N(C(=O)c2ccccc2-n2ncnn2)C1` [Example 29, Ethyl 4-methoxy-2-{[(3R,6R)-6-methyl-1-{[2-(2H-tetrazol-2-yl)phenyl]carbonyl}piperidin-3-yl]oxy}pyridine-3-carboxylate], the IC50 is more than 10000 nM at hOX1R and 52 nM at human orexin-2 receptor.
